# Source: US7195901B1 (priority 2004, dated 2007)
# System: RcDGAT
# Experiment: DGAT substrate specificity assay, microsomes of yeast expressing […], 14C-oleoyl-CoA incorporation into TAG
# Assay type: biochemical, Ricinus communis
substance,measurement,setting,value
"1,2-diricinolein","increase in amount of TAG product (RRO, OOO, PoPoO) compared to that without exogenous DAG","0.25 mM DAG added, 15 min at 30° C, RRO from diricinolein, OOO from diolein, PoPoO from dipalmitolein",318 pmol/mg/min
same,"absolute incorporation of oleate into TAG product (RRO, OOO, PoPoO)","1 mM of DAG, endogenous diolein and dipalmitolein present in the yeast cells",456 pmol/mg/min
